Legend:
[1] = target: farnesyl protein transferase (FPT), K-ras (Homo sapiens, UniProt P49354+P49356); experiment: FPT IC50 (K-ras), inhibition of farnesyl protein transferase, in vitro enzyme assay; assay type: biochemical
Description: (§1) FPT IC50 (inhibition of farnesyl protein transferase, in vitro enzyme assay) and COS Cell IC50 (Cell-Based Assay) were determined following the assay procedures described in WO 95/10516, published Apr. 20, 1995. GGPT IC50 (inhibition of geranylgeranyl protein transferase, in vitro enzyme assay), Cell Mat Assay, and anti-tumor activity (in vivo anti-tumor studies) could be determined by the assay procedures described in WO 95/10516. The disclosure of WO 95/10516 is incorporated herein by reference thereto.

[2] = target: farnesyl protein transferase (FPT), H-ras (Homo sapiens, UniProt P49354+P49356); experiment: FPT IC50 (H-ras), inhibition of farnesyl protein transferase, in vitro enzyme assay; assay type: biochemical
Description: as §1

SMILES: NCC(=O)N1CCC(CC(=O)N2CCC([C@H]3c4ncc(Br)cc4CCc4cc(Cl)cc(Br)c43)CC2)CC1 [Example 2]
- IC50 [1]: 20.5 nM
- IC50 [2]: 5 nM

Source: patent US6387905B2, “Compounds useful for inhibition of farnesyl protein transferase” (Schering Corporation, priority 1996, dated 2002)
